Experimental findings from publication PMC5731250 (Cell, 2017) are described below.

The chains behind the UniProt entries cited, without tags or fusion partners.
UniProt P42866, whole entry: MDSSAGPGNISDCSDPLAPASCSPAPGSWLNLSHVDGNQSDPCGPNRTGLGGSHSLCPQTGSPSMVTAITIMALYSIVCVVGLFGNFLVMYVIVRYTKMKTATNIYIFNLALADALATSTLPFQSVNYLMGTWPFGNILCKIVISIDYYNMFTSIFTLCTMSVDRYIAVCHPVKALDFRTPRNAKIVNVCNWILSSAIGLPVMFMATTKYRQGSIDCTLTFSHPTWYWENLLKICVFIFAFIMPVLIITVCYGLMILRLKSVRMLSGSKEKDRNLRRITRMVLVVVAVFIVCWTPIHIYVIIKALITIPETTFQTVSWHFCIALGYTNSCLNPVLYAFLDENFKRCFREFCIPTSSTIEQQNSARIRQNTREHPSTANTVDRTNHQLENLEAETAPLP

The target of assay [1] is T1, mouse MOR (Mus musculus, UniProt P42866).
Assay [2] concerns the target T1, mouse MOR. The source holds these as a separate data set.
Assay [3] has as its target T1, mouse MOR. The source holds these as a separate data set.

With `CN1CC[C@]23c4c5ccc(O)c4O[C@H]2[C@@H](O)C=C[C@H]3[C@H]1C5` [Morphine], the “Δlog(τ/KA) βarr2 (imaging)” value on mouse MOR [1] is recorded as −0.33±0.07. For the same compound, the “Δlog(τ/KA) GTPγS (CHO)” value on mouse MOR [2] is −0.42±0.07. For the same compound, the “GTPγS (CHO)/βarr2 Δδlog(τ/KA)” value on mouse MOR [3] is given as −0.09 (−0.37 to 0.18).
